Data reported in patent US10806735B2, “Use of neutrophil elastase inhibitors in liver disease” (pH Pharma Co., Ltd., priority 2018, dated 2020).

System: DIO mice
Assay: Example 2: oral glucose tolerance test (OGTT) in DIO mice
Type: in vivo
Description: Male DIO (diet-induced obesity) mice (C57BLJ6NTac DIO MPF, n=35) were purchased from Taconic Biosciences (Rensselaer, N.Y.). DIO mice were prepared by feeding male C57BL16 mice a high fat diet (HFD, D12492; Research Diets, Inc., New Brunswick, N.J.) from 6-16 weeks of age. A twelve-hour light cycle was maintained throughout study duration. Room temperature was monitored daily and maintained at 22-25° C. DIO mice were housed individually and maintained on the HFD during a 7-day facility acclimation period and throughout the study period. All mice were administered vehicle (5% DMSO/3% ethanol/92% peanut oil) once daily during the acclimation period.
Compounds were administered once daily in the morning by oral gavage for 6 weeks. Dose volume was maintained at 5 ml/kg throughout the study.
Whole blood was obtained weekly from fed animals by tail clip for measurement of non-fasted blood glucose (StatStrip; Nova Biomedical, Waltham, Mass.) on day 7, day 14, day 21 and day 35 after first dosing. Body weight was recorded prior to glucose measurement at baseline and weekly thereafter. Oral glucose tolerance tests were performed in fasted mice at baseline (day −1), day 28 and day 42 thereafter. […] At the end of the 6-hour fasting period, mice were challenged with glucose (2 g/kg, 10 ml/kg, by oral gavage). Blood samples were obtained by tail clip at 0, 20, 40, 60, 90 and 120 minutes post-glucose load for assessment of blood glucose by StatStrip. Serum insulin was measured from time 0 blood samples of OGTT using the Mouse/Rat Insulin Kit (MSD #K152BZC; Meso Scale Diagnostics, Rockville, Md.).
All data are represented as group mean±SEM. Data were analyzed using JMP (SAS software). All normalizations were calculated using terminal body weight. […] Treatment effects compared to vehicle were determined using Oneway ANOVA (*, p<0.05) followed by Dunnett's test where appropriate.

CN(CCOc1ccc(CC2SC(=O)NC2=O)cc1)c1ccccn1 (stereo not shown) [rosiglitazone, reference compound]
decrease of glucose AUC on day 42 compared to baseline (30 mg/kg/day PO, vehicle 12.6±10.3%): 44.9±3.9%
OGTT glucose AUC on day 42 (30 mg/kg/day PO, vehicle 27.8±1.2): 20.1±0.5 mg/dL/min×10^3
OGTT glucose AUC on day 28 (30 mg/kg/day PO, vehicle 27.9±1.1): 20.7±0.4 mg/dL·min×10^3
OGTT glucose AUC at baseline (day −1 before treatment, group assigned to 30 mg/kg/day): 37.6±2.6 mg/dL·min×10^3
